Target: Translocator protein (Homo sapiens, UniProt P30536)

Protein sequences, listed by entry. Tags and fused reporters are not part of them.
UniProt P30536, whole entry: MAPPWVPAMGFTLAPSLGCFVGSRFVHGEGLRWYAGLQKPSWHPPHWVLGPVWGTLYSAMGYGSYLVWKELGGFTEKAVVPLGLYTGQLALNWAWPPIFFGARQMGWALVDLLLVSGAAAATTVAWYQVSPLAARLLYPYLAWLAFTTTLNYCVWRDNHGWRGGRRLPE

CCC(C)N(C)C(=O)c1cc2ccccc2c(-c2ccccc2Cl)n1 (configuration not stated) [PK-11195]
IC50: 2.5 nM | Ki: 2.3 nM

From ChEMBL document CHEMBL1140203, “cis-4-(Piperazin-1-yl)-5,6,7a,8,9,10,11,11a-octahydrobenzofuro[2,3-h]quinazolin-2-amine (A-987306), a new histamine H4R antagonist that blocks pain responses against carrageenan-induced hyperalgesia” (J Med Chem, 2008)
